The source of these data is article PMC10575921 (2023).

Series [1] can be described thus: in vivo. As to conditions: both, cynomolgus monkey, po.
Series [2] is described as follows: in vivo. As to conditions: both, Sprague-Dawley, rat, po.
Series [3] in a line: in vivo. As to conditions: male, C57BL/6J, mouse, po.

In the case of `CC(C)(C)[C@H](NC(=O)C(F)(F)F)C(=O)N1CC2(C[C@H]1C(=O)N[C@H](C#N)C[C@@H]1CCNC1=O)SCCS2` [compound 9, simnotrelvir], the time to peak (Tmax) is 60 min in series [1]; 30 min in series [1] (5 mg/kg); 30 min in series [2]; 15 min in series [2] (15 mg/kg); 30 min in series [3].
